From patent US11371040B2, “Endonuclease-barcoding” (priority 2015, dated 2022)
“Also recorded” adds a separate entry of the source.

What was measured:
Format in all cases: cell-based
PC9 cells [1] = test system: PC9 cells
Procedure: Oligos encoding the targeting sequence were then annealed and ligated into the pSpCas9(BB)-2A-Puro (Ran et al., 2013) vector digested with Bbsl (New England Biolabs). […] The set of silent mutations is designed to enable PCR specificity and to avoid recognition by the corresponding sgRNA used to cleave the endogenous sequence. For each targeted locus, cells were co-transfected with 2 μg of the CRISPR/Cas9 plasmid and […] of either the control or the sense/nonsense ssODN (50 μM). Immediately after transfection, the cells were pooled in the same flask.
gDNA was extracted using the NucleoSpin Tissue kit (Macherey-Nagel). Total RNA was isolated using the Tri-Reagent (Sigma-Aldrich) and the RNeasy kit (Qiagen), DNase digested and reverse-transcribed using the Improm-II Reverse Transcription System (Promega). The sequence of the different PCR primers, designed using Primer-BLAST (NCBI), is provided in the sequence listing (SEQ ID N^o30-57). […] Primer specificity for each particular barcode was assessed. qPCR was performed from 100 ng of gDNA using SYBR Green (Life Technologies) on a 7900 HT Fast-Real-Time, a Q-PCR ABI PRISM 7500 or a QuantStudio Flex PCR System (Life Technologies). qPCR analysis was performed using the standard curve or the Pfaffl methods (Pfaffl, 2001).

PC9 cells [2] = assay: Invasion assay of EGFR-barcoded PC9 cells (matrigel Boyden chambers); settings: pre-treated two days, 24 hr in chamber, 0.5 μM
PC9 cells [3] = assay: Multiplexed CRISPR-barcoding (EGFR-T790M, KRAS-G12D, EML4-ALK) in PC9 cell culture; settings: multiplex CRISPR-barcoded PC9 cells

COc1cc2ncnc(Nc3ccc(F)c(Cl)c3)c2cc1OCCCN1CCOCC1 [gefitinib]
enrichment of EGFR-T790M containing cells (PC9 cells [1]): readily detectable; also recorded: stronger effect
EGFR-T790M barcode in cells that migrated through the matrigel-coated membrane vs cells inside the chamber (PC9 cells [2]): dramatically enriched
enrichment of the EGFR-T790M, KRAS-G12D and EML4-ALK sequences (PC9 cells [3]): specific enrichment
